In this test the target is Muscarinic acetylcholine receptor M1 (Homo sapiens) (UniProt P11229). The test can be described thus: Allosteric modulation of human muscarinic M1 receptor expressed in CHO cells assessed as effect on acetylcholine-induced calcium mobilization by FLIPR assay. Type of test: functional, cell-based. The method, boiled down:
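Human M1-expressing CHO cells; test compound added with an EC20 concentration of acetylcholine; calcium mobilization read on FLIPR384. Inflection point (IP) derived; percent max is the maximum potentiated EC20 response. Values are the mean of at least two experiments; interassay variability ±30% for IP unless otherwise noted.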

By UniProt entry, the sequences of proteins in these tests, tags left out. Where a name states a change or a piece, a line headed by the entry shows the natural chain unless it says otherwise.
UniProt P11229: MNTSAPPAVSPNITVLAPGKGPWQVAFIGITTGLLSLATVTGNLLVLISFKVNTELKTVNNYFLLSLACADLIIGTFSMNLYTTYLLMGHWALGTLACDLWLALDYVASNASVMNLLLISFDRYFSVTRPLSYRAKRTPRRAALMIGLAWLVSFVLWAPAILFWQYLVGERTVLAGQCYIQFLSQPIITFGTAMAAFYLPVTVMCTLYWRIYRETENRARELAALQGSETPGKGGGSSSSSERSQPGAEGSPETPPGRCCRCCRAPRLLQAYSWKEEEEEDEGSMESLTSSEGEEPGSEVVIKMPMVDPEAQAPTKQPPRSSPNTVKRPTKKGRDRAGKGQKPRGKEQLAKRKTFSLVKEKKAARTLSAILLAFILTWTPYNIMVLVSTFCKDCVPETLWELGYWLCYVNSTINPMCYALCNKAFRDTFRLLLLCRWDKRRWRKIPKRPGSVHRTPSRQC

`CC(=O)Nc1cccc(-c2ccc(Cn3cc(C(=O)O)c(=O)c4cccc(F)c43)nc2)c1`: the IP amounted to 131 nM.

As to `Cn1cc(-c2ccc(Cn3cc(C(=O)O)c(=O)c4c(F)cccc43)nc2)cn1`, the IP amounted to 176 nM.

On to `O=C(O)c1cn(Cc2ccc(-c3cccnc3)nc2)c2c(F)cccc2c1=O`, for which the IP worked out at 951 nM.

The record behind these values is ChEMBL document CHEMBL1153183, “Pyridine containing M(1) positive allosteric modulators with reduced plasma protein binding” (Bioorg Med Chem Lett, 2010).
